Target: D(2) dopamine receptor (Homo sapiens, UniProt P14416)
Test: biochemical

Chains of the proteins cited; added tags and fusions are not shown.
UniProt P14416, whole entry: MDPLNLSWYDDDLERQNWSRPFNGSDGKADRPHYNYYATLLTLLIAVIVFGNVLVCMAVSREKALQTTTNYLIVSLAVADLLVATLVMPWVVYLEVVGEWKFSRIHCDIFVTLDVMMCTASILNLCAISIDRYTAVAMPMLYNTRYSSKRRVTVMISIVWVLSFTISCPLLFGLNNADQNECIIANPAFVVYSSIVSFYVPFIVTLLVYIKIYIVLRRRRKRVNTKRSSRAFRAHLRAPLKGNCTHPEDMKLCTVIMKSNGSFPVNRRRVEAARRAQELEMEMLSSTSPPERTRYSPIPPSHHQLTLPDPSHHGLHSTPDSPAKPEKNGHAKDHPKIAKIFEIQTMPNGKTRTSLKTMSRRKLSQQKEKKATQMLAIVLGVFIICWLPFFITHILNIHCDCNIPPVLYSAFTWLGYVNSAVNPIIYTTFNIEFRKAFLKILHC

For `CCCN(CCN1CCN(c2ccccc2)CC1)C1CCc2c(O)cccc2C1` (stereo in doubt; (-)-25), the Ki was 26 nM.

From ChEMBL document CHEMBL1140704, “Further structure-activity relationships study of hybrid 7-{[2-(4-phenylpiperazin-1-yl)ethyl]propylamino}-5,6,7,8-tetrahydronaphthalen-2-ol analogues: identification of a high-affinity D3-preferring agonist with potent in vivo activity with long duration of action” (J Med Chem, 2008)
